Results taken from PubChem BioAssay (NCI).
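Cells were grown in 96-well plates and exposed to each compound for 48 hours at five concentrations; endpoints were interpolated linearly between bracketing concentrations, or set to the highest concentration if not reached. At the TGI there is no net growth.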

How the values were obtained:
Assay in all cases: NCI tumour cell line growth inhibition, 48 h
[1] = tested on: A549 NSCLC
[2] = tested on: MOLT-4 leukemia
[3] = tested on: MDA-MB-435
[4] = tested on: SW-620 colon
[5] = tested on: SK-MEL-28 melanoma
[6] = tested on: NCI/ADR-RES ovarian
[7] = tested on: COLO 205 colon
[8] = tested on: K-562 leukemia
[9] = tested on: SNB-19 CNS
[10] = tested on: HL-60(TB) leukemia
[11] = tested on: UO-31 renal
[12] = tested on: IGROV1 ovarian
[13] = tested on: HOP-92 NSCLC
[14] = tested on: MALME-3M melanoma
[15] = tested on: SF-539 CNS
[16] = tested on: OVCAR-3 ovarian
[17] = tested on: LOX IMVI melanoma
[18] = tested on: SF-268 CNS
[19] = tested on: OVCAR-8 ovarian
[20] = tested on: SK-OV-3 ovarian
[21] = tested on: SF-295 CNS
[22] = tested on: HOP-62 NSCLC
[23] = tested on: CCRF-CEM leukemia
[24] = tested on: TK-10 renal
[25] = tested on: HCT-116 colon
[26] = tested on: A498 renal
[27] = tested on: HCT-15 colon
[28] = tested on: OVCAR-4 ovarian
[29] = tested on: SR leukemia
[30] = tested on: T-47D breast
[31] = tested on: NCI-H522 lung
[32] = tested on: SK-MEL-2 melanoma
[33] = tested on: M14 melanoma
[34] = tested on: MCF7 breast
[35] = tested on: PC-3 prostate
[36] = tested on: NCI-H23 lung
[37] = tested on: SN12C renal
[38] = tested on: HT29 colon
[39] = tested on: U251 CNS
[40] = tested on: ACHN renal
[41] = tested on: MDA-N
[42] = tested on: MDA-MB-231 breast
[43] = tested on: OVCAR-5 ovarian
[44] = tested on: UACC-62 melanoma
[45] = tested on: DU-145 prostate
[46] = tested on: SK-MEL-5 melanoma
[47] = tested on: 786-0 renal
[48] = tested on: CAKI-1 renal
[49] = tested on: BT-549 breast
[50] = tested on: KM12 colon
[51] = tested on: NCI-H226 lung
[52] = tested on: RPMI-8226 leukemia
[53] = tested on: EKVX NSCLC

With O=C(Cc1ccc(Cl)c(Cl)c1)N[C@@H]1CCCC[C@@H]1N1CCCC1 the TGI [1] was over 100 µM, the TGI [2] was over 100 µM and the TGI [3] was over 100 µM. The TGI [4] was over 100 µM, the TGI [5] was 58.7 µM and the TGI [6] was over 100 µM. For the same molecule, the TGI [7] was 39.2 µM, the TGI [8] was over 100 µM and the TGI [9] was over 100 µM. The TGI [10] was over 100 µM, the TGI [11] was over 100 µM and the TGI [12] was over 100 µM. It also gave a TGI [13] of over 100 µM, a TGI [14] of 39.5 µM and a TGI [15] of over 100 µM. For the same molecule, the TGI [16] was over 100 µM, the TGI [17] was over 100 µM and the TGI [18] was over 100 µM. The TGI [19] was over 100 µM, the TGI [20] was over 100 µM and the TGI [21] was 96.9 µM. For the same molecule, the TGI [22] was over 100 µM, the TGI [23] was over 100 µM and the TGI [24] was 87.6 µM. For the same molecule, the TGI [25] was over 100 µM, the TGI [26] was over 100 µM and the TGI [27] was over 100 µM. For the same molecule, the TGI [28] was over 100 µM, the TGI [29] was over 100 µM and the TGI [30] was over 100 µM. For the same molecule, the TGI [31] was over 100 µM, the TGI [32] was over 100 µM and the TGI [33] was 64.3 µM. The TGI [34] was over 100 µM, the TGI [35] was over 100 µM and the TGI [36] was over 100 µM. It also gave a TGI [37] of over 100 µM, a TGI [38] of over 100 µM and a TGI [39] of over 100 µM. For the same molecule, the TGI [40] was over 100 µM, the TGI [41] was over 100 µM and the TGI [42] was over 100 µM. The TGI [43] was over 100 µM, the TGI [44] was 37.4 µM and the TGI [45] was over 100 µM. For the same molecule, the TGI [46] was 35.1 µM, the TGI [47] was over 100 µM and the TGI [48] was over 100 µM. For the same molecule, the TGI [49] was over 100 µM, the TGI [50] was over 100 µM and the TGI [51] was over 100 µM. For the same molecule, the TGI [52] was over 100 µM and the TGI [53] was over 100 µM.
